# TDP1 cell CPT – growth inhibition of DT40 Tdp1-/-;hTDP1 cells with camptothecin (screen for TDP1 inhibitors); chicken DT40 Tdp1-/-;hTDP1 cells + 20 nM CPT, ATP luminescence, 48 h; 420,000 compounds, 12% hits; Potency, µM (top dose mostly 46.2 µM), for inactives: at the highest dose activity change, negative = growth inhibition, most hits filed as inhibitors; AID 686979; also: potency is read from the fitted curve at half-maximal effect; % is scaled to controls: 0 for no effect and ±100 for the full control effect; nearly all actives have a fitted effect of over 55% in size
#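 Chicken DT40 Tdp1-/- cells stably complemented with human TDP1 were seeded at 400 cells/well in medium containing 20 nM camptothecin, exposed to pin-transferred compounds, and grown at 37 °C for at least 48 hr. Viability was read as ATP luminescence.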
# DT40 TDP1 no CPT – qHTS for Inhibitors of human tyrosyl-DNA phosphodiesterase 1 (TDP1): qHTS in cells in absence of CPT. DT40 Tdp1-/- hTDP1 cells, no CPT, ATP luminescence, 48 h. Potency, µM (series often up to 46.2 µM), inactives show top-dose activity change, negative = growth inhibition, actives largely listed as inhibitors. 420,000 compounds, 15% hits. AID 686978, 2013; also: potency is read from the fitted curve at half-maximal effect; % is scaled to controls: 0 for no effect and ±100 for the full control effect; nearly all actives have a fitted effect of over 55% in size
#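 Cells were dispensed at 400 per well, compounds added by pin tool, plates incubated ≥48 hr at 37 °C, then CellTiter-Glo added for 30 min at room temperature before luminescence reading. Line: DT40 Tdp1-/- complemented with hTDP1; camptothecin omitted.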
# TDP1 block – inhibitors of human tyrosyl-DNA phosphodiesterase TDP1. 350,000 compounds, 0.28% hits. AID 485290. recombinant TDP1, AlphaScreen DNA substrate cleavage. Potency, µM (titrated, usually from 130 µM), for inactives: top-dose activity change, negative = inhibition, usual class: inhibitors; also: potency is read from the fitted curve at half-maximal effect; % is scaled to controls: 0 for no effect and ±100 for the full control effect; nearly all actives have a fitted effect of over 40% in size
#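 Here, a 5' biotin and 3' phosphotyrosine-FITC DNA oligonucleotide reports Tdp1 activity: intact substrate bridges AlphaScreen beads, while cleavage leaves a 3' phosphate and drops signal. All incubations at room temperature.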
# miR-21 FLuc – miR-21 reporter, rising signal; Potency, µM (titrated, usually from 38.3 µM), without a hit: at the highest dose reporter change, positive = more light; AID 2288; 340,000 tested, under 10 active; HeLa miR-21 FLuc reporter, luciferase, 48 h; active = well fitted rising curve with a large enough effect; inconclusive = small, poorly fitted or top-dose-only effect; inactive = no such curve, though single readings can be large or run the other way;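 note: % of control where 0% means no effect; miR-21 action dims this reporter so a rising signal means less miR-21 action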
#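 Compounds were titrated across several concentrations (up to approximately 40 uM) and incubated 48 hours with HeLa miR-21-FLuc reporter cells (miR-21 target sequence downstream of FLuc, endogenous miR-21). Readout was firefly luciferase luminescence after lytic detection reagent.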
# uPA generation – cell surface uPA generation inhibition; cell surface uPA generation assay, qHTS; Potency, µM (doses to about 38.3 µM), for the others: at the highest dose activity change, negative = inhibition, actives largely listed as inhibitors; 330,000 compounds, 0.31% hits; AID 540303; active = well fitted inhibition curve with a large enough effect; inconclusive = small, poorly fitted or top-dose-only effect; inactive = no such curve, though single readings can be large or run the other way; tested in mouse RAW 264.7 cells; also: potency is read from the fitted curve at half-maximal effect; % is scaled to controls: 0 for no effect and ±100 for the full control effect; nearly all actives have a fitted effect of over 55% in size
# Starred values were filed as active, the others as inactive; ? = inconclusive; · = not tested or not shown; [ ] = another dose, or the depositor's remark. An excerpt weighted towards active compounds, which were near 16% of everything screened. Unless noted, calls follow the shape of the dose curve; as a rule, active = well fitted curve in the direction sought with a large enough effect; inconclusive = small, poorly fitted or top-dose-only effect, or another doubt; inactive = no such curve, though single readings can be large; an effect the other way counts as inactive or inconclusive.
# Order of values – TDP1 cell CPT	DT40 TDP1 no CPT	TDP1 block	miR-21 FLuc	uPA generation
1	CC(=O)Nc1ccc(N=Nc2ccc(O)cc2)cc1
→ 15µM*	?	0%	-18%	-11%
2	c1ccc(CCNc2ccccn2)nc1
→ 0%	2%	·	·	3%
3	Cc1csc2ncnc(NCCc3ccccn3)c12
→ 6.5µM*	3.7µM*	6%	7%	?
4	c1ccc(CCNc2ncnc3sccc23)nc1
→ 6.5µM*	7.3µM*	5%	-6%	5%
5	C=C(C)C1CCC(C)C(OC(C)=O)C1 (configuration not stated)
→ ·	·	7%	·	·
6	CC(Nc1ncnc2ccccc12)c1ccccc1 (configuration not stated)
→ 1.2µM*	0.73µM*	-4%	17%	-9%
7	CSc1ncc(CN2CCCCC2C(=O)Nc2ccc(Oc3ccccc3)nc2)cn1 (configuration not stated)
→ -7%	-7%	5%	2%	0%
8	[N-]=[N+]=Nc1nc2c(N)ncnc2n1C1OC(CO)C(O)C1O (configuration not stated)
→ 0.41µM*	0.58µM*	16%[56.1 µM]	·	·
9	Nc1ncnc2c1nc(Cl)n2[C@@H]1O[C@H](CO)[C@@H](O)[C@@H]1O
→ 1µM*	5µM*	0%	·	·
10	Nc1ncnc2c1nc(Cl)n2C1OC(CO)C(O)C1O (configuration not stated)
→ 0.37µM*	0.46µM*	11%[56.1 µM]	·	·
11	CN(C)c1nc2c(N)ncnc2n1C1OC(CO)C(O)C1O (configuration not stated)
→ 4%	3%	·	·	12%
12	CN(C)c1nc2c(N)ncnc2n1[C@H]1O[C@@H](CO)[C@H](O)[C@@H]1O
→ 10%	-14%	·	-11%	-1%
13	c1ccc(C2=Nc3ccccc3OC2)cc1
→ 18µM*	11µM*	2%	-14%	-13%
14	Cc1ccc2c(c1)N=C(c1ccc(Cl)cc1)CO2
→ ?	23µM*	-6%	-50%	-9%
15	CC(C)Cc1cc(CN2CCC(CO)(Cc3ccccc3)CC2)[nH]n1
→ ?	-11%	0%	0%	-4%

# By substructure, those above containing sulfur.
# Order of values – TDP1 cell CPT	DT40 TDP1 no CPT	TDP1 block	miR-21 FLuc	uPA generation
3	Cc1csc2ncnc(NCCc3ccccn3)c12
→ 6.5µM*	3.7µM*	6%	7%	?
4	c1ccc(CCNc2ncnc3sccc23)nc1
→ 6.5µM*	7.3µM*	5%	-6%	5%
7	CSc1ncc(CN2CCCCC2C(=O)Nc2ccc(Oc3ccccc3)nc2)cn1 (configuration not stated)
→ -7%	-7%	5%	2%	0%

# 3 structures from above, ordered by molar mass, ascending.
# Order of values – TDP1 cell CPT	DT40 TDP1 no CPT	TDP1 block	miR-21 FLuc	uPA generation
13	c1ccc(C2=Nc3ccccc3OC2)cc1
→ 18µM*	11µM*	2%	-14%	-13%
12	CN(C)c1nc2c(N)ncnc2n1[C@H]1O[C@@H](CO)[C@H](O)[C@@H]1O
→ 10%	-14%	·	-11%	-1%
15	CC(C)Cc1cc(CN2CCC(CO)(Cc3ccccc3)CC2)[nH]n1
→ ?	-11%	0%	0%	-4%

# The listing continues:
# Order of values – TDP1 cell CPT	DT40 TDP1 no CPT	TDP1 block	miR-21 FLuc	uPA generation
16	Cc1ccc(/C=C/C(=O)NCc2ccccn2)o1
→ ?	-12%	14µM*	-3%	-1%
17	Cc1ccc(/C=C/C(=O)NC2CCCCCCC2)o1
→ 2.6µM*	3.7µM*	8%	?	-18%
18	Cc1ccc(/C=C/C(=O)Nc2ccc(N(C)C)cc2)o1
→ 21µM*	?	7%	-48%	-3%
19	Cc1ccc(/C=C/C(=O)NCC2COc3ccccc3O2)o1 (configuration not stated)
→ 16µM*	16µM*	-1%	1%	-4%
20	Cc1ncc(CN2CCCC(CCC(=O)NCc3ccccc3F)C2)s1 (configuration not stated)
→ ?	?	6%	-2%	-9%
21	Cc1noc(C)c1NC(=O)Nc1cccc2c1O[C@H](CN(C)C(=O)NC(C)C)[C@@H](C)CN([C@H](C)CO)C2=O
→ -5%	-25%	0%	·	4%
22	COc1ccc(CCNS(=O)(=O)c2cccc(C)c2)cc1OC
→ 6%	-16%	1%	-2%	·
23	O=C(CN1CCN(Cc2ccc3c(c2)OCO3)CC1)NCC(F)(F)F
→ -2%	-3%	0%	-1%	4%
24	Cc1ccc(/C=C/C(=O)NCCc2c[nH]c3ccccc23)o1
→ -4%	-11%	3%	-5%	-6%
25	Cc1ccc(/C=C/C(=O)NCCc2cccc(Cl)c2)o1
→ 10µM*	18µM*	·	14%	-7%
26	CCCc1cc(=O)[nH]c(Nc2cc(Cl)cc(Cl)c2)n1
→ 15µM*	16µM*	0%	?	·
27	CCCCc1ccc(Nc2nc(CCC)cc(=O)[nH]2)cc1
→ ?	16µM*	6%	0%	1%
28	CCCc1cc(=O)[nH]c(Nc2ccc(OCC)cc2)n1
→ ?	?	6%	-8%	·
29	C[C@H](O)Cc1cc2ccccc2c(=O)o1
→ -4%	4%	2%	·	16%
30	CC1CCN(S(=O)(=O)c2nnc(NC(=O)c3cccc(Br)c3)s2)CC1
→ ?	?	6%	-6%	·

# Later entries:
# Order of values – TDP1 cell CPT	DT40 TDP1 no CPT	TDP1 block	miR-21 FLuc	uPA generation
31	Cc1ccc(C)c(S(=O)(=O)N2CCN(C(=O)CNC(=O)c3sc4ccccc4c3Cl)CC2)c1
→ -18%	0%	·	·	-13%
32	O=C(NCC(=O)N1CCN(S(=O)(=O)c2ccccc2C(F)(F)F)CC1)c1sc2ccccc2c1Cl
→ ?	12µM*	1%	·	3%
33	CC(C)Oc1ccc(CNS(=O)(=O)c2csc(C(N)=O)c2)cc1
→ 16µM*	21µM*	0%	13%	1%
34	CC(C)Oc1ccc(CNS(=O)(=O)c2cnc(N)nc2)cc1
→ -11%	-2%	-1%	-4%	·
35	CN(C)c1ccc(CNS(=O)(=O)c2csc(C(N)=O)c2)cc1
→ 23µM*	7.3µM*	3%	7%	3%
36	COc1ccc(NC(=O)Nc2cc(F)ccc2C)cc1
→ ?	?	0%	-3%	·
37	COc1ccc(N(C)S(=O)(=O)c2cccc(C(=O)NCc3ccc4c(c3)OCO4)c2)cc1
→ ?	?	3%	2%	1%
38	COc1ccc(OC)c(CN2CCN(C(=O)c3cccc(S(=O)(=O)Nc4ccccc4OC)c3)CC2)c1
→ ?	?	0%	·	-11%
39	COc1ccc(OC)c(CN2CCN(C(=O)c3cccc(S(=O)(=O)N(C)c4ccccc4)c3)CC2)c1
→ 18µM*	13µM*	·	·	·
40	COc1ccc(N(C)S(=O)(=O)c2cccc(C(=O)N3CCN(Cc4ccc5c(c4)OCO5)CC3)c2)cc1
→ 23µM*	18µM*	-3%	·	-12%
41	CCOC(=O)C1=CN(Cc2cccc(F)c2)S(=O)(=O)N(CC)C1c1ccccc1 (configuration not stated)
→ ?	?	-4%[56.1 µM]	·	2%
42	CCOC(=O)C1=CN(Cc2cccc(-c3cccnc3)c2)S(=O)(=O)N(C)C1C (configuration not stated)
→ ?	13µM*	0%[56.1 µM]	·	7%
43	CCOC(=O)C1=CN(Cc2cccc(F)c2)S(=O)(=O)NC1c1ccc(Br)cc1F (configuration not stated)
→ 21µM*	?	-1%[56.1 µM]	·	-1%
44	CCOC(=O)C1=CN(Cc2cccc(F)c2)S(=O)(=O)N(CC)C1c1ccc(C(F)(F)F)cc1 (configuration not stated)
→ 21µM*	23µM*	-3%[56.1 µM]	·	6%
45	Cc1[nH]n(-c2ncc(-c3ccccc3)s2)c(=O)c1C(c1ccc(Cl)cc1)C(C#N)C#N (configuration not stated)
→ ?	?	14%	-5%	0%
46	N#Cc1nc(COc2ccccc2Cl)oc1NCCc1ccccc1
→ ?	16µM*	4%	-13%	·
47	COc1ccc(CCNc2oc(COc3ccccc3F)nc2C#N)cc1OC
→ ?	26µM*	7%	1%	-5%
48	N#Cc1nc(COc2ccc(F)cc2)oc1NCCCn1ccnc1
→ -25%	?	6%	-11%	-1%

# Screens (PubChem)
